Results published in FireProtDB (doi:10.1093/protein/11.5.377).

Details: Homo sapiens, Thermal, DSC, Sodium phosphate-HCl 0.05 M, reversible: no, whole UniProt chain shown; for unfolding free energy: 25 °C

B1: Ferritin light chain wild type, P02792 (protein)
chain: MSSQIRQNYSTDVEAAVNSLVNLYLQASYTYLSLGFYFDRDDVALEGVSHFFRELAEEKREGYERLLKMQNQRGGRALFQDIKKPAEDEWGKTPDAMKAAMALEKKLNQALLDLHALGSARTDPHLCDFLETHFLDEEVKLIKKMGDHLTNLHRLGGPEAGLGEYLFERLTLKHD
unfolding free energy (pH 2): 2.51 kcal/mol | unfolding enthalpy (calorimetric) (pH 2): 70.3 kcal/mol and 40.4 kcal/mol | unfolding enthalpy (van 't Hoff) (pH 2): 41.7 kcal/mol and 40.4 kcal/mol | Tm (pH 2.2): 53.1 °C | unfolding enthalpy (calorimetric) (pH 2.2): 86.3 kcal/mol | unfolding enthalpy (van 't Hoff) (pH 2.2): 86.9 kcal/mol | unfolding free energy (pH 2.4): 9.62 kcal/mol | unfolding enthalpy (calorimetric) (pH 2.4): 103 kcal/mol and 40.6 kcal/mol | unfolding enthalpy (van 't Hoff) (pH 2.4): 105 kcal/mol and 44.1 kcal/mol | unfolding free energy (pH 2.8): 11.6 kcal/mol | unfolding enthalpy (calorimetric) (pH 2.8): 106 kcal/mol and 41.1 kcal/mol

Where “and” joins values, the source holds several entries; their conditions need not be identical. Equal values may be shown once.
